Results published in ChEMBL document CHEMBL3396991 (Eur J Med Chem, 2015).
pKi: −log10 of the molar value.

By UniProt entry, the sequences of proteins in these tests, tags left out. Where a name states a change or a piece, a line headed by the entry shows the natural chain unless it says otherwise.
UniProt P34975: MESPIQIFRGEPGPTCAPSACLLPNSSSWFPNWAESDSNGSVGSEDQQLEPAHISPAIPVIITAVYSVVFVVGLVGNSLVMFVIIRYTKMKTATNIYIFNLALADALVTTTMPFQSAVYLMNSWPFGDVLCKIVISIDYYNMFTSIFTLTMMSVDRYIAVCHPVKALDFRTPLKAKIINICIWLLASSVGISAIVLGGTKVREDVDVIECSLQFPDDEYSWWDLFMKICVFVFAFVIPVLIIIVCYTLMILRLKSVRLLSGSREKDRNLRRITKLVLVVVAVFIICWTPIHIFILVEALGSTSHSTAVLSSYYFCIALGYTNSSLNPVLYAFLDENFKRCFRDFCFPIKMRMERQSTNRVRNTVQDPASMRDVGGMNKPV

Biological target: Kappa-type opioid receptor (Rattus norvegicus, UniProt P34975)
Assay: Displacement of [3H]U69593 from rat recombinant kappa opioid receptor expressed in CHO cells after 60 mins

## CN(C(=O)Cc1ccc(Cl)c(Cl)c1)[C@H]1CCCC[C@@H]1N1CCCC1
  pKi: 9.44
